Nrf2 activator = activators of Nrf2 (ARE) signaling; 410,000 compounds, 0.31% hits; AREc32 ARE-luciferase reporter (MCF7-derived line), luminescence, 24 h; AID 624171; Potency, µM (doses to about 46.1 µM), inactives show at the top dose activation, actives largely listed as activators; note: potency is the fitted concentration of half-maximal effect; % of control where 0% means no effect; nearly all actives have a fitted effect of over 65% in size
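Cells of the AREc32 ARE-luciferase line are plated in OPTI-MEM containing 5% FBS and left overnight at 37 deg C. Compounds are pinned in, incubation continues 24 hr, and firefly luciferase signal is then measured.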
PI4K2A inh = blocks human PI4K2A kinase activity. purified PI4K2A, ADP-Glo luminescence, 1 h; stronger effect = lower value. 420,000 compounds, 0.13% hits. activity change, negative = inhibition, % at 76.9 µM. Q9BTU6. AID 1346378; in the data active = activity change below about -50%; inconclusive = mostly about -30% to -49%;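 note: -100% = wells without enzyme as full effect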
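PI4K2A activity was measured by ADP-Glo luminescence: enzyme (4 ug/mL stock) and phosphatidylinositol (1.2 mM stock) in Tris pH 7.5/MgCl2/EGTA/Triton X-100 buffer were reacted with ATP (300 microM stock) for one hour at ambient temperature.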
A549 viability = A549 cytotoxicity, counter-screen for Nrf2 inhibitors. A549 ARE-Fluc cells, CellTiter-Fluor viability, 18-24 h. Potency, µM (highest dose often 46 µM), without a hit: at the highest dose activity change, negative = cytotoxicity, actives largely listed as inhibitors. 390,000 compounds, 0.16% hits; note: potency is the fitted concentration of half-maximal effect; % is set by controls: 0 for no effect and ±100 for the full control effect
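A549 ARE-Fluc cells in 5% FBS OPTI-MEM, 5000 cells/well, rested 2 h then exposed to compounds in concentration-response for 18-24 h at 37 °C. Viability by CellTiter-Fluor fluorescence (Ex 405/Em 525) after 30 min; luciferase luminescence (BugLite, 15 min, RT) read afterwards.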
GALK inhibitor = inhibitors of human galactokinase | P51570 | Purified GALK, Kinase-Glo residual ATP luminescence | Potency, µM (titrated, usually from 57.5 µM), for the others: at the top dose activity change, negative = inhibition, hits mostly inhibitors | 270,000 compounds, 0.007% hits | AID 1868; note: potency is the fitted concentration of half-maximal effect; % is set by controls: 0 for no effect and ±100 for the full control effect
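ATP-depletion format; final 35 uM ATP, 100 uM D-galactose, 5 nM enzyme; pH 8.0 HEPES/Mg2+ buffer; 60 min RT; luminescence read 10 min after detection reagent.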
miR-21 reporter = miR-21 reporter, rising signal; HeLa miR-21 FLuc reporter, luciferase, 48 h; Potency, µM (titrated, usually from 38.3 µM), for the others: at the top dose reporter change, positive = more light; 340,000 tested, under 10 active; AID 2288; active = well fitted rising curve with a large enough effect; inconclusive = small, poorly fitted or top-dose-only effect; inactive = no such curve, though single readings can be large or run the other way;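 also: % of control where 0% means no effect; miR-21 action dims this reporter so a rising signal means less miR-21 action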
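HeLa cells stably expressing CMV-driven firefly luciferase with a downstream miR-21 binding sequence, endogenously expressing miR-21, were treated with titrations (up to about 40uM final) for 48 hours at 37 degree Celsius. Luciferase luminescence was read after lysis.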
Nrf2 block = Nrf2 pathway inhibition | AID 504444 | A549 ARE-Fluc reporter, luciferase luminescence, 18-24 h | Potency, µM (top dose mostly 46 µM), inactives show at the top dose activity change, negative = inhibition, hits mostly inhibitors | 360,000 compounds, 2.1% hits; note: potency is the fitted concentration of half-maximal effect; % is set by controls: 0 for no effect and ±100 for the full control effect; nearly all actives have a fitted effect of over 60% in size
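Nrf2 activity is the BugLite luminescence, read 15 min after reagent at room temperature, following CellTiter-Fluor cytotoxicity readout (30 min, 37C). Compound titrations were applied for 18-24 h to 5000 A549 ARE_Fluc cells/well in 5% FBS OPTI-MEM.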
* hit, by the source's call; ? = inconclusive; · = not tested or not shown; ! = a repeat was not active. Most compounds without a hit are left out; they make up all but 2.2% or so of the library. Unless noted, calls come from the whole dose curve; as a rule, active = well fitted curve in the direction sought with a large enough effect; inconclusive = small, poorly fitted or top-dose-only effect, or another doubt; inactive = no such curve, though single readings can be large; an effect the other way counts as inactive or inconclusive.

SMILES | Nrf2 activator | PI4K2A inh | A549 viability | GALK inhibitor | miR-21 reporter | Nrf2 block
C=C(c1ccccc1C)[n+]1ccccc1 | 0% | -3 | -12% | 2% | 1% | 18µM*
COC(=O)CCCCC(CCSS/C(CCO)=C(\C)N(C=O)Cc1cnc(C)nc1N)SC(C)=O (stereo not drawn) | · | 1 | · | · | · | ·
Cc1cccc(N2CCN(C(=O)c3ccc4c(c3)N(Cc3ccccc3F)C(=O)c3ccccc3S4=O)CC2C)c1 (stereo not drawn) | 0% | 3 | ? | · | 28% | ?
CCN1CCN(C(=O)c2ccc3c(c2)N(Cc2cccc(Cl)c2)C(=O)c2ccccc2S3=O)CC1 (stereo not drawn) | 0% | 2 | 7% | · | 1% | ·
CCN1C(=O)c2ccccc2S(=O)c2ccc(C(=O)N3CCN(c4cccc(C)c4)C(C)C3)cc21 (stereo not drawn) | 1% | -1 | -29% | · | ? | 16µM*
CN(Cc1ccccc1)C(=O)c1ccc2c(c1)N(Cc1ccc(Cl)cc1)C(=O)c1ccccc1S2=O (stereo not drawn) | 0% | -1 | -29% | · | -4% | 21µM*
CCOC(=O)N1CCN(C(=O)c2ccc3c(c2)N(Cc2cccc(Cl)c2)C(=O)c2ccccc2S3=O)CC1 (stereo not drawn) | 0% | -4 | ? | 4% | 13% | 21µM*
O=S1(=O)C=CCN1Cc1cn(Cc2cccc(Cl)c2)nn1 | · | 1 | · | · | · | ·
COc1ccc(C(=O)N/N=C/c2ccccn2)cc1OC | 0% | -3 | -5% | 2% | -1% | ?
COc1ccc(C(=O)Nc2ccccc2C(=O)N/N=C/c2ccccn2)cc1OC | 7% | -4 | -13% | 11% | -2% | 9.2µM*
CCNc1nc(C#N)nc2c1ncn2-c1cccc(Cl)c1 | · | · | -15% | · | · | ?
CCCN(CC(=O)Nc1cc(Cl)ccc1Cl)C(=O)/C=C/c1ccco1 | 11µM* | -3 | 1% | 0% | -20% | -19%
COc1ccc(-c2cc(-c3ccccc3)nc3c2COc2ccccc2-3)cc1 | 0% | -4 | 4% | · | -2% | 4%
COc1ccc(C2=Nc3ccccc3OC2)cc1 | 11µM* | -9 | -5% | 0% | -46% | ?
CCOc1ccccc1CNC(=O)C1CCN(c2nnc(C)c3c(C)n(-c4ccc(C)cc4)nc23)CC1 | 7% | 5 | ? | -12% | -1% | 23µM*!
COc1ccc(CNC(=O)Cn2nc(C)c3c(C)n(-c4ccc(C)cc4)nc3c2=O)cc1OC | -1% | 1 | -11% | 5% | 1% | 23µM*
Cc1ccc(-n2nc3c(N4CCC(C(=O)NCc5ccccc5C)CC4)nnc(C)c3c2C)cc1 | 10% | -8 | ? | -4% | -2% | ?
CCOc1ccccc1CNC(=O)Cn1nc(C)c2c(C)n(-c3ccc(C)cc3)nc2c1=O | 9% | -2 | 1% | 9% | 18% | 9.2µM*
COc1ccc(CNC(=O)Cn2nc(C)c3c(C)n(-c4ccccc4)nc3c2=O)cc1OC | 0% | -1 | 1% | · | -1% | ·
COc1cccc(CNC(=O)Cn2nc(C)c3c(C)n(-c4ccc(C)cc4)nc3c2=O)c1OC | 0% | 1 | 4% | -1% | 0% | -12%
O=C1CCCC2=C1C1(CCOCC1)N=C(Nc1nc3ccccc3o1)N2 | · | · | 1% | · | · | ?
O=C(NCc1ccc(F)c(F)c1)C1C2C=CC3(CN(Cc4ccccc4)C(=O)C13)O2 (stereo not drawn) | · | -4 | · | · | · | ·
O=C(c1cc(Cl)cc(Cl)c1)N1CC[C@H]2[C@H](CCCN2Cc2ccccc2)C1 | · | -8 | · | · | · | ·
COc1ccc(Nc2nc(-c3ccc(C)cc3)nc3ccccc23)c(OC)c1 | -1% | 0 | 14% | · | -20% | ·
COc1ccc(Nc2nc(N3CCCC3)nc3ccccc23)c(OC)c1 | 23% | -2 | 18µM* | -4% | 22% | ?

Taken from the listing for reference:
SMILES | Nrf2 activator | PI4K2A inh | A549 viability | GALK inhibitor | miR-21 reporter | Nrf2 block
COc1ccc(C(=O)N/N=C/c2ccccn2)cc1OC | 0% | -3 | -5% | 2% | -1% | ?
COc1ccc(C(=O)Nc2ccccc2C(=O)N/N=C/c2ccccn2)cc1OC | 7% | -4 | -13% | 11% | -2% | 9.2µM*

Of the compounds above, these contain fluorine:
SMILES | Nrf2 activator | PI4K2A inh | A549 viability | GALK inhibitor | miR-21 reporter | Nrf2 block
Cc1cccc(N2CCN(C(=O)c3ccc4c(c3)N(Cc3ccccc3F)C(=O)c3ccccc3S4=O)CC2C)c1 (stereo not drawn) | 0% | 3 | ? | · | 28% | ?
O=C(NCc1ccc(F)c(F)c1)C1C2C=CC3(CN(Cc4ccccc4)C(=O)C13)O2 (stereo not drawn) | · | -4 | · | · | · | ·
